Source: patent publication US9782491B2, “Peptide conjugates for treating pain” (priority 2012, dated 2017)

What was measured:
[1] = molecular target: interaction between CaV2.2 and CRMP2 (Rattus norvegicus, UniProt P47942); assay: Immunoprecipitation with CaV2.2 antibody from rat dorsal root ganglia lysate, CRMP2 immunoblot; type: biochemical; settings: 10 μM peptide added for 30 min; rat DRG
adult rat DRG neurons = assay: Fura-2 calcium imaging of K+-stimulated Ca2+ influx; type: cell-based; settings: 20 min incubation; 3 μM and 30 μM (FIG. 1); 46.5 mM KCl

Compound: CC[C@H](C)[C@H](NC(=O)[C@H](Cc1c[nH]c2ccccc12)NC(=O)[C@H](CCC(=O)O)NC(=O)[C@H](CC(C)C)NC(=O)[C@@H](N)Cc1ccc(O)cc1)C(=O)N[C@@H](Cc1ccccc1)C(=O)N[C@@H](CCCCN)C(=O)N[C@@H](C)C(=O)N[C@@H](CCC(=O)O)C(=O)N[C@@H](CCC(=O)O)C(=O)N[C@H](C(=O)N[C@@H](CCSC)C(=O)N[C@@H](CC(C)C)C(=O)N[C@@H](C)C(=O)N[C@@H](CCC(=O)O)C(=O)O)C(C)C [L1, YLEWIFKAEEVMLAE]
- amount of CRMP2 captured with CaV2.2 antibody [1]: reduced the amount of CRMP2 that could be captured
- K+-stimulated [Ca2+]c influx (adult rat DRG neurons): concentration-dependent decrease
